The text below walks through data of PMC9945734 (BMC Medicine, 2023).

The subject of test [1] is KLF5, KLF5^K369Q, and KLF5^K369R proteins. Nature of the test: Circular dichroism (CD) analysis. The note with it: negative peaks between 205 nm and 220 nm; all three forms of KLF5. Type of test: binding. As for the experimental part:
Wild-type or mutant KLF5 protein in 2 mL PBS at 0.01 mg/mL was analyzed using a CD spectropolarimeter (Chirascan, Applied Photophysics, Surrey, UK) at 200–260 nm. The spectra were recorded in a 1 cm path-length cuvette. An average of three repeated scans were performed on each spectrum. NTZ was added to the protein solution at a final concentration of 1 μM and incubated for 2 h at 4°C before CD detection.
(Circular dichroism is widely used to follow secondary structure.)

For test [2] the test system is unchanged. Nature of the test: Detection of KLF5-bound NTZ by HPLC.

SMILES strings stand for the structures.

`CC1(C)CCC(C)(C)c2cc(NC(=O)c3ccc(C(=O)O)cc3)ccc21` [Am80]: the “CD spectrum / secondary structure of KLF5 proteins” value in test [1] is “did not change the secondary structure of KLF5”. For `CC(=O)Oc1ccccc1C(=O)Nc1ncc([N+](=O)[O-])s1` [Nitazoxanide], in test [1], the “CD spectrum / secondary structure of KLF5 proteins” value was “decreased the intensity of these negative peaks”. The “binding to KLF5 protein (HPLC)” value in test [2] is recorded as “binds to the KLF5 protein regardless of KLF5 acetylation status”.
